Literature values as cited in patent publication US20190111103A1, “NOVEL PEPTIDE OR SALT THEREOF, COMPOSITION FOR ENHANCING PROLIFERATION OF FIBROBLAST CELLS AND COMPOSITION FOR ENHANCING ELASTIN PRODUCTION IN FIBROBLAST CELLS AND CHONDROCYTES CONTAINING THE SAME” (Hayashikane Sangyo Co., Ltd., priority 2017, published 2019).

Amino acid sequences for entries named in this document (tags omitted). Residues count along the entry.
UniProt P12821, 30-1306: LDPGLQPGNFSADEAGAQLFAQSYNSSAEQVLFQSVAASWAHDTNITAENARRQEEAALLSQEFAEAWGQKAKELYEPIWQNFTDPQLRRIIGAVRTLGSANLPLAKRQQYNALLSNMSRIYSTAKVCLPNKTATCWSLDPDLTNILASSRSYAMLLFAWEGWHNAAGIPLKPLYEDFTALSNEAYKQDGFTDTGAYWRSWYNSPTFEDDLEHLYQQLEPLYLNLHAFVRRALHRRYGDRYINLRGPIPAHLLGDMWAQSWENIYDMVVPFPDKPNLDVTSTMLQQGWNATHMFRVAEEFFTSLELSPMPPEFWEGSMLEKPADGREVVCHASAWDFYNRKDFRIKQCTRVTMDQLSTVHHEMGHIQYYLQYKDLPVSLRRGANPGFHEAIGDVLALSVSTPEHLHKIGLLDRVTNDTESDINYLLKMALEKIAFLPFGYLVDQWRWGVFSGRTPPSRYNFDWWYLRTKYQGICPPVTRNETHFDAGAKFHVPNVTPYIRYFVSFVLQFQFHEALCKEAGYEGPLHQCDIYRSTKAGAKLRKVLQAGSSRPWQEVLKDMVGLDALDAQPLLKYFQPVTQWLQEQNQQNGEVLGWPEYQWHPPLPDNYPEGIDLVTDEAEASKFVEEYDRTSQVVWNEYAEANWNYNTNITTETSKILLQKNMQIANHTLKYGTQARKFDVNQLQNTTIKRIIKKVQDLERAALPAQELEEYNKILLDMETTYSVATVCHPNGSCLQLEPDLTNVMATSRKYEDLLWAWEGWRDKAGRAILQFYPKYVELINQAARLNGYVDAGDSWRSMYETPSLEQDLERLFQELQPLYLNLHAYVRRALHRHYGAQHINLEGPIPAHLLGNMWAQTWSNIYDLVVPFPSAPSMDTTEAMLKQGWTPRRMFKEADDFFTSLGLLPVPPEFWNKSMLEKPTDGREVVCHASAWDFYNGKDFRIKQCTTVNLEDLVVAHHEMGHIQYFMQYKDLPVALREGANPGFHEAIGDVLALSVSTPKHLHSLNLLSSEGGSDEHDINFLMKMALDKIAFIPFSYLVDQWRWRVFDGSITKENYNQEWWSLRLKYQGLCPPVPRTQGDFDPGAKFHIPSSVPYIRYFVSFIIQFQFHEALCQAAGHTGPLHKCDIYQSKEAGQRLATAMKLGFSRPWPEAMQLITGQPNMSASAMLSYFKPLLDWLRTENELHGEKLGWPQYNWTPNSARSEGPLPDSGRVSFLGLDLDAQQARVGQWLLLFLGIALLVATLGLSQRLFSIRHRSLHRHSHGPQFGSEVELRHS

Biological target: angiotensin conversion enzyme (Homo sapiens, UniProt P12821)
Conditions: already known, JP Kokai 2007-182424; cited from earlier work

## Val-Pro
  effect on angiotensin conversion enzyme: inhibitory effect
